Laboratory results: PMC8954831, “Design, Synthesis, Molecular Docking, and Biological Evaluation of Pyrazole Hybrid Chalcone Conjugates as Potential Anticancer Agents and Tubulin Polymerization Inhibitors” (Pharmaceuticals, 2022)

Protein sequences, listed by entry. Tags and fused reporters are not part of them.
UniProt P02550, whole entry: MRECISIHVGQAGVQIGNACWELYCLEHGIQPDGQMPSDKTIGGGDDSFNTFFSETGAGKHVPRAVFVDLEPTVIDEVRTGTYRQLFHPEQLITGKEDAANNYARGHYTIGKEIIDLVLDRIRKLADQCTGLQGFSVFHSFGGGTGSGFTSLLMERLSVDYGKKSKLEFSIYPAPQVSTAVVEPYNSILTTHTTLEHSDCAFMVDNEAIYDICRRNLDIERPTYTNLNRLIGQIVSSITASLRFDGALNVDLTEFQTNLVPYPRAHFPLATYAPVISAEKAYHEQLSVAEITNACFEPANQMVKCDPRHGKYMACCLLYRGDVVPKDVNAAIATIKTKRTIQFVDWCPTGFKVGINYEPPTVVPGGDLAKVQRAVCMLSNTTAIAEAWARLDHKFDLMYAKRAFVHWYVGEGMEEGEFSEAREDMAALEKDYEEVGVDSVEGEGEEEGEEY
UniProt P02554, whole entry: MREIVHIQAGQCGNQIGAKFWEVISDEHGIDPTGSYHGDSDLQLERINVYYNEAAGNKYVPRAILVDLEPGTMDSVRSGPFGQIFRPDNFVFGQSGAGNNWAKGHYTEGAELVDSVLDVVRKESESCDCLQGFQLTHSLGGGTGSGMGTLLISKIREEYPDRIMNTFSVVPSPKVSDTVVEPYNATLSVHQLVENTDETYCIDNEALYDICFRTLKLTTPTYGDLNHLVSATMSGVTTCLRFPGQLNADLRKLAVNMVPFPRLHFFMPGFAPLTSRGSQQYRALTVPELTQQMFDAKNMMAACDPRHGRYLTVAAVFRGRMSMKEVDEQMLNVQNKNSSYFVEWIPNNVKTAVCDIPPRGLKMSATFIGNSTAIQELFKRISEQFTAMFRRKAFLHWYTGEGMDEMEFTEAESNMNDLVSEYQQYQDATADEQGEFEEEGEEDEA

Target: tubulin (purified brain tubulin) (Sus scrofa, UniProt P02550+P02554)
Test: In vitro tubulin polymerization assay (fluorescence)
Type: biochemical
Conditions: read-out: % Inhibition of Tubulin Polymerization
Protocol: The α and β tubulin subunits are recognized by heterodimers and self-assemble into a stable microtubule in a time-dependent manner. Assessment of the inhibitory effect of new pyrazolic chalcone conjugates on tubulin polymerization was also carried out. The progression of tubulin polymerization was thus examined by monitoring the increase in the fluorescence intensity at 450 nm (excitation wavelength of 360 nm) in a 384-plate for 1 h at 37 °C with and without the conjugate at 10 µM concentration. CA-4 (6 µM) and Vincristine (3 µM) were used as the positive control, whereas paclitaxel (3 µM) was used as the negative control.
Tubulin polymerization is a dynamic process by enhancement of fluorescence intensity due to the combination of a fluorescent reporter into the microtubules as polymerization occurs. Tubulin polymerization was performed by using a purified brain tubulin polymerization kit purchased from Cytoskeleton (BK110P, Denver, CO, USA). The tubulin polymerization assay was monitored by the increase in fluorescence over a 60 min period at 37 °C, with excitation at 360 nm and emission at 450 nm. The final buffer concentration for tubulin polymerization contained 80 mM PIPES, pH 6.9; 2 mM MgCl2; 0.5 mM EGTA; […]; and 15% glycerol. Firstly, 5 µL of the test compounds (final concentration of 10 µM) was added and then warmed to 37 °C for 1 min. […]

COc1ccc(/C=C\c2cc(OC)c(OC)c(OC)c2)cc1O [Combretastatin A-4, reference compound]
inhibition at 6 µM: 72.3%
